Assay results taken from ChEMBL document CHEMBL1144974, “Design, synthesis, and activity of novel cis- and trans-3,6-disubstituted pyran biomimetics of 3,6-disubstituted piperidine as potential ligands for the dopamine transporter” (Bioorg Med Chem Lett, 2003).

Sequences of proteins named here, by UniProt entry; tags and fusion partners are left off.
UniProt Q9WTR4, whole entry: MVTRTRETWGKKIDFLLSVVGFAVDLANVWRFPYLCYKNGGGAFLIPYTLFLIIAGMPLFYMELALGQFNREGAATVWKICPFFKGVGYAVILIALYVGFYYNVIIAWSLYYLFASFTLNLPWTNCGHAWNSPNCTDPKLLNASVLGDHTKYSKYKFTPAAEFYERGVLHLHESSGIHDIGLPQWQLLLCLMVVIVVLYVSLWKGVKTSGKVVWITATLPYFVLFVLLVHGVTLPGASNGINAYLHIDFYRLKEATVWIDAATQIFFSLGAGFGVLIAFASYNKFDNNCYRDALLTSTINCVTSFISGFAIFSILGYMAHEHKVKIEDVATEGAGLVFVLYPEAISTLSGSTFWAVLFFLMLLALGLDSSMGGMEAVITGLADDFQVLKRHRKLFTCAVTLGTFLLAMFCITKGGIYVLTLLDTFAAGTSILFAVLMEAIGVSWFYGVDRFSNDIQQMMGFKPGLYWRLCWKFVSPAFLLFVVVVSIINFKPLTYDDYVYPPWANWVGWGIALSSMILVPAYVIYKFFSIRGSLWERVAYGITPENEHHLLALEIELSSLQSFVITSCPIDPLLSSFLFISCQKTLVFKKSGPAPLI
UniProt P31652, whole entry: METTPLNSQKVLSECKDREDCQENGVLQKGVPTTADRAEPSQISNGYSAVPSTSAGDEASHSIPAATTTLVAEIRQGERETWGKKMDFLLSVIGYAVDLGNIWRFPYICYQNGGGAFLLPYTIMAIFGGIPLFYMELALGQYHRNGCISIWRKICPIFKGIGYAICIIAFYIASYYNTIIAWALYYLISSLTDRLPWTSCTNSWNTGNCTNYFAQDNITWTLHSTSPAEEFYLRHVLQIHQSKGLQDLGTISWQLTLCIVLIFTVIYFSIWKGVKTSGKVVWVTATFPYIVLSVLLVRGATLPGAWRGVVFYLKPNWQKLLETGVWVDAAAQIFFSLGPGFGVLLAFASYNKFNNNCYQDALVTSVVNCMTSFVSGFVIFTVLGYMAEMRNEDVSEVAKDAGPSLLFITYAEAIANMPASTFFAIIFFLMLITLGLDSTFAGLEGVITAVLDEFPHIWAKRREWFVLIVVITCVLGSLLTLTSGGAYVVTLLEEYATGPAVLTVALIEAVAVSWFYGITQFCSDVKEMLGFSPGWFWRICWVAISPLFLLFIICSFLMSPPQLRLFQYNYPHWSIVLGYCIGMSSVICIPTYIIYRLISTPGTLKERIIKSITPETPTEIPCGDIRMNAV
UniProt P23977, whole entry: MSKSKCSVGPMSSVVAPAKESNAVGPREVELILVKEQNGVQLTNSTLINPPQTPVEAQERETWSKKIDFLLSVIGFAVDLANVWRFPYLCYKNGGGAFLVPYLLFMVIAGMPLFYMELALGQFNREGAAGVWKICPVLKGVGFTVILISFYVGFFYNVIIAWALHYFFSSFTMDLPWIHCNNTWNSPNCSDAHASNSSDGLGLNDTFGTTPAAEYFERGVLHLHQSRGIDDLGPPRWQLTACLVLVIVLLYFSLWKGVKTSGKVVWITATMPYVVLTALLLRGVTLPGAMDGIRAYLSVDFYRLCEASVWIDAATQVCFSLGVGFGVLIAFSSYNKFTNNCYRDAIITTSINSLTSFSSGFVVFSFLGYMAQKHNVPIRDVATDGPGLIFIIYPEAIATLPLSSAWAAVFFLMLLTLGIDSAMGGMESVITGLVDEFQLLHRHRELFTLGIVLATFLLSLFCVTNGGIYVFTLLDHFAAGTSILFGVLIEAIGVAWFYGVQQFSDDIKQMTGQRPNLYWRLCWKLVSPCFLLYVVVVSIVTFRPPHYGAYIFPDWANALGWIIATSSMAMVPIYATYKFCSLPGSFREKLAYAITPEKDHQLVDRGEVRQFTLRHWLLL

Assays:
Assay type in all cases: tissue-based
[1] = molecular target: Norepinephrine transporter (Rattus norvegicus, UniProt Q9WTR4); experiment: Inhibition of binding of [3H]nisoxetine to (NET) norepinephrine transporter in rat striatum
In short: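 Radioligand displacement of [3H]nisoxetine labelling NET; other binding conditions are referred to earlier work. Values are means ± SEM of three independent experiments, each assayed in triplicate.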

[2] = molecular target: Sodium-dependent serotonin transporter (Rattus norvegicus, UniProt P31652); experiment: Inhibition of binding of [3H]citalopram to (SERT) serotonin transporter in rat striatum
[3] = molecular target: Sodium-dependent dopamine transporter (Rattus norvegicus, UniProt P23977); experiment: Inhibition of binding of [3H]WIN-35 428 to (DAT) dopamine transporter in rat striatum

Row | SMILES | IC50 [1] | IC50 [2] | IC50 [3]
1 | COc1ccc(CNC2CCC(C(c3ccccc3)c3ccccc3)OC2)cc1 (racemic) | 1550 nM | 1180 nM | 
2 | O=[N+]([O-])c1ccc(CNC2CCC(C(c3ccccc3)c3ccccc3)OC2)cc1 (racemic) | 968 nM | 738 nM | 
3 | N#Cc1ccc(CNC2CCC(C(c3ccccc3)c3ccccc3)OC2)cc1 (racemic) |  |  | 52.6 nM
